In US12552854B2, “Peptides that block presentation of antigenic islet peptides by HLA-DQ8 and methods for treating type-1 diabetes” (Icahn School of Medicine at Mount Sinai, priority 2019, dated 2026):

Assay: Half-life and Intrinsic Clearance of RI-CT and RI-EXT (1 µM) after Incubation with Mouse Hepatocytes
Method: Table printed on a drawing sheet, FIG. 20
Title: Half-life and Intrinsic Clearance of RI-CT and RI-EXT (1 µM) after Incubation with Mouse Hepatocytes
First reader's note: The footnotes are printed inside the table frame as its last two rows; midazolam is a small-molecule positive control.

Substance: Midazolam*
- CLint (mL/min/million cells): 0.010 mL/min/million cells
- t1/2: 1.16 h
